Drawing on US11932628B2, “Selective small molecule peptidomimetic melanocortin ligands” (REGENTS OF THE UNIVERSITY OF MINNESOTA, priority 2021, dated 2024), this text covers EC50 for one compound.

By UniProt entry, the sequences of proteins in these tests, tags left out. Where a name states a change or a piece, a line headed by the entry shows the natural chain unless it says otherwise.
UniProt Q01727: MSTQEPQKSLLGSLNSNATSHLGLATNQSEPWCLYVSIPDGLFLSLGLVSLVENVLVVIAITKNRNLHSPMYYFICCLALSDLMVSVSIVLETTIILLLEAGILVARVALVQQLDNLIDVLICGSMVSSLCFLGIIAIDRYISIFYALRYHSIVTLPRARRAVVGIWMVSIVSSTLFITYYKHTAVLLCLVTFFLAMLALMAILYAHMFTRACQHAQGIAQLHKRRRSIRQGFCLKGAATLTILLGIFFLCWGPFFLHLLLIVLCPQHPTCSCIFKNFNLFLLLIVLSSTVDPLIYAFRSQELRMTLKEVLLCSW

One may read the EC50 as the midpoint of the concentration-response curve.

In this experiment the target is mMC1R (Mus musculus, UniProt Q01727). Briefly: cAMP based functional bioassay (CRE/β-galactosidase reporter), agonist activity at mMC1R. As to conditions: read-out: mMC1R Mean ± SEM (agonist EC50); HEK-293 cells, mean of three or more experiments.

Regarding `CC(=O)N[C@@H](Cc1c[nH]cn1)C(=O)N[C@H](Cc1ccccc1)C(=O)N[C@@H](CCCNC(=N)N)C(=O)N[C@@H](Cc1c[nH]c2ccccc12)C(N)=O` [Ac-His-DPhe-Arg-Trp-NH2, reference compound], the EC50 turned out to be 13.4 ± 3.9 nM.
